# Antibody variant affinities, Ab-95 light chain, assay 2

The measurements come from Engelhart et al. 2022 (doi:10.1038/s41597-022-01779-4) through the FLAb antibody collection.

All variants were tested on one target, the spike HR2 peptide PDVDLGDISGINAS (SARS-CoV-2).

The variants keep the heavy chain, the linker and the frameworks of Ab-95 (scFv order VH, the linker GGGGSGGGGSGGGGS, VL).
VH: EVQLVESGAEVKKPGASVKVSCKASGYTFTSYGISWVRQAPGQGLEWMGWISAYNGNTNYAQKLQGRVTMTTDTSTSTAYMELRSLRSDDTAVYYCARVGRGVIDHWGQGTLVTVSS
VL: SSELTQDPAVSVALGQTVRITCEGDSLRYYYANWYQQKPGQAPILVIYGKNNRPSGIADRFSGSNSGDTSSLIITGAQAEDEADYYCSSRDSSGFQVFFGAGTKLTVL

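AAYL52 was designed without a model: most single CDR substitutions and a random sample of double and triple ones. In AlphaSeq, yeast of one mating type display the scFv and yeast of the other type display the target. After mating in shaken culture at 30 °C for 16 h, diploids were selected and their barcode pairs sequenced. The ratio of observed to expected reads was calibrated, replicate by replicate, on BCL2-family standards whose Kd was known from biolayer interferometry. The assay was run in three technical replicates.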

The parent's light chain CDRs are EGDSLRYYYAN, GKNNRPS, SSRDSSGFQVF; each variant's own CDRs replace them letter for letter.
Values are log10 of the apparent Kd in nM; lower means stronger binding.
An entry "nd" has no value in the source: the pair was not observed among the diploids in that replicate. This suggests poor binding but is not conclusive.
Background: pairings of library AAYL52 with three empty control strains gave a value in 28% of cases (median 3.91, 5th percentile 2.90). Values in that range, when seen in few replicates, are hard to tell from nonspecific mating. The control count says in how many pairings with the empty strains this scFv gave a signal, with their mean in brackets.

| CDR-L1 | CDR-L2 | CDR-L3 | log10 Kd (nM) by replicate | control signals |
|---|---|---|---|---|
| EGDPLRYYYAT | GKNNRPS | SSNDSSGFQVF | nd / nd / nd | 2/9 (3.66) |
| EGDVLRYYYAN | GKNNRPD | SSRDSSGDQVF | 3.10 / nd / 3.61 | 3/9 (3.65) |
| EGDSLRYYYAW | IKNNRPY | SSRDSSGFQVF | 4.36 / 5.84 / nd | 2/9 (4.31) |
| EGDYLRYYYVN | GKNNRVS | SSRDSSGFQVF | 1.84 / 2.45 / 1.97 | 1/9 (4.10) |
| EGDGLRYQYAN | GKNNRWS | SSRDSSGFQVF | 1.90 / 1.99 / 1.78 | 4/9 (4.62) |
| EGDSLRYYYAK | GKNNRPS | SVRDSSGFQVL | nd / 3.14 / 4.42 | 2/9 (4.72) |
| EIDSIRYYYAN | GKNNRPS | SSRDSSGGQVF | nd / 5.52 / 2.66 | 2/9 (3.22) |
| EGDSLRYYAAN | GKNNRPS | SSRCESGFQVF | nd / nd / nd | 0/9 |
| EGDQLRYYYAN | GKSNRPS | SSRDSSGFQNF | 3.70 / nd / 4.40 | 3/9 (4.19) |
| EGDSLQYYYAN | GKNNRIS | PSRDSSGFQVF | 3.69 / nd / nd | 2/9 (3.97) |
| EGDSLRTYYAN | GKNNTYS | SSRDSSGFQVF | 3.96 / 3.77 / 3.13 | 2/9 (3.38) |
| EGDSLRYYYAN | GHNNRPS | SSRDSMGFQDF | 3.08 / 3.58 / 2.78 | 5/9 (3.80) |
| EGCSLRYYYAN | GKNNRPS | SSRKSSGAQVF | nd / nd / nd | 2/9 (3.07) |
| EGDSNRYPYAN | GKNNRGS | SSRDSSGFQVF | 2.45 / 2.40 / 1.82 | 1/9 (5.13) |
| EGDSLLYYYAN | GKKNRPS | SSRDSSGFQVF | 3.22 / 5.77 / 4.31 | 3/9 (4.06) |
| EGDSLRNYYAN | GKINRPS | SSRDSSGRQVF | 3.33 / 2.91 / 2.10 | 4/9 (3.80) |
| EGDSLRYYYEN | GENNRPS | SSRDSSGFQVK | nd / 4.32 / nd | 2/9 (3.03) |
| NGDSLRYYYAN | GRNNRPS | SSRDSSGFQVF | 2.04 / 1.98 / 1.90 | 5/9 (4.29) |
| EGDSLRYYYTN | GKNNRPS | NSRDSSGFQYF | 2.96 / 3.62 / nd | 5/9 (3.91) |
| SGDSNRYYYAN | GKNNRPS | SSRDSSGFQVF | 2.50 / 2.95 / 2.35 | 7/9 (3.77) |
| EGISLRYYYAN | GKNNRPS | SIVDSSGFQVF | 3.00 / 3.01 / 3.63 | 3/9 (4.45) |
| EGDSLRYYYAM | GKNNRPS | SSRDSSGGQFF | 3.33 / nd / 4.06 | 3/9 (4.12) |
| FGDMLRYYYAN | GKNNRPS | SSPDSSGFQVF | 4.14 / nd / nd | 3/9 (2.92) |
| EGDSLRYYYAN | GKNSHPS | SSRDSSGFQCF | 3.04 / 3.06 / 2.32 | 4/9 (3.62) |
| EGDSLRYCYAN | GKNNRSS | SSRDSSGFQVF | 3.06 / 2.98 / 2.90 | 1/9 (3.23) |
| ESDSLRYYYAC | GKNNRPS | SSRDSSGFQRF | nd / nd / nd | 2/9 (4.06) |
| EGDSLRYYYAN | GKNNRPQ | SSRDSSGLQVF | 2.60 / 2.66 / 2.80 | 4/9 (3.91) |
| EGDSLRYYKAN | GKNNRPS | SSRNASGFQVF | nd / 2.99 / nd | 0/9 |
| EGDSGRYYYAN | GKNNGPS | SSRDSSGFQVW | nd / nd / nd | 1/9 (3.00) |
| EGDSNRYYYAN | GKNNRWS | SSRDSSGFQVF | nd / 3.43 / nd | 2/9 (3.26) |
| ESDSLDYYYAN | GKNNRPS | SYRDSSGFQVF | 4.00 / 3.58 / 3.08 | 1/9 (4.00) |
| EGISLRYYYAN | GKNNRPS | SGRDSSGFQVF | 1.94 / 2.00 / 1.52 | 4/9 (3.81) |
| EGDFLRYYYAN | GKNNKPS | SSRDSSIFQVF | nd / nd / nd | 0/9 |
| EGDSLRYNYAN | KKNNRPS | SSRDSSGFQVF | 2.18 / 1.74 / 1.68 | 5/9 (4.35) |
| EGDSLRYYYAN | GKQNKPS | SSRESSGFQVF | 4.67 / 3.86 / nd | 4/9 (3.81) |
| EMDSLRAYYAN | GKNNRPS | SSRDSSQFQVF | 3.96 / 5.78 / 3.30 | 4/9 (3.96) |
| EGCSLRYYYAN | WKNNRPS | SSRRSSGFQVF | 5.59 / 4.20 / 4.06 | 6/9 (3.91) |
| EGDSLREYYAQ | GKNNRPS | SRRDSSGFQVF | 4.90 / nd / nd | 3/9 (3.98) |

Top 3 of the variants detected in all replicates, tightest first:

CDR-L1	CDR-L2	CDR-L3	log10 Kd (nM) by replicate	control signals
EGISLRYYYAN	GKNNRPS	SGRDSSGFQVF	1.94 / 2.00 / 1.52	4/9 (3.81)
EGDSLRYNYAN	KKNNRPS	SSRDSSGFQVF	2.18 / 1.74 / 1.68	5/9 (4.35)
EGDGLRYQYAN	GKNNRWS	SSRDSSGFQVF	1.90 / 1.99 / 1.78	4/9 (4.62)